Drawing on US7223553B2, “Immunoassays for everolimus” (priority 2004, dated 2007), this text covers chemical stability for one substance.

A short description of the data set: Chemical stability of everolimus derivatives (hydrolytic cleavage / elimination). Type of data set: physicochemical. An excerpt: The oxime derivate (activated ester) would be a desirable candidate in various assays, including latex enhanced immunoturbidimetric assays.
RAD-822 may be used in various embodiments of the present invention. This compound is used herein in an illustrative FPIA embodiment with an ester modified linker at position 28. […] Thus, RAD 822 is not optimal for other embodiments requiring vigorous heat stressing conditions, such as QMS® technology (Seradyn, Indianapolis, Ind.).

On to “Everolimus-O-carboxymethyl-32-oxime [oxime derivative (position 32)]”, for which the chemical stability result was “will not undergo an elimination reaction in most useful conditions”.
